Experimental data taken from patent publication EP0927179B1, “SUBSTITUTED BENZOCYCLOHEPTAPYRIDINE DERIVATIVES USEFUL FOR INHIBITION OF FARNESYL PROTEIN TRANSFERASE” (SCHERING CORPORATION, priority 1996, dated 1998).

Tests used:
[1] = molecular target: T1, farnesyl protein transferase (Homo sapiens, UniProt P49354+P49356); assay: FPT IC50 (K-ras), inhibition of farnesyl protein transferase, in vitro enzyme assay; assay type: biochemical
Description: (§1) FPT IC50 (inhibition of farnesyl protein transferase, in vitro enzyme assay) and COS Cell IC50 (Cell-Based Assay) were determined following the assay procedures described in WO 95/10516, published April 20, 1995. GGPT IC50 (inhibition of geranylgeranyl protein transferase, in vitro enzyme assay), Cell Mat Assay, and anti-tumor activity (in vivo anti-tumor studies) could be determined by the assay procedures described in WO 95/10516. The disclosure of WO 95/10516 is incorporated herein by reference thereto.

[2] = molecular target: T1, farnesyl protein transferase; assay: FPT IC50 (H-ras), inhibition of farnesyl protein transferase, in vitro enzyme assay; assay type: biochemical
Description: as §1

IC50 [1] | IC50 [2] | SMILES
8.2 nM | 2.1 nM | CS(=O)(=O)N1CCC(CC(=O)N2CCC([C@H]3c4ncc(Br)cc4CCc4cc(Cl)cc(Br)c43)CC2)CC1 [Example 2]
– | 2.9 nM | NS(=O)(=O)N1CCC(CC(=O)N2CCC([C@H]3c4ncc(Br)cc4CCc4cc(Cl)cc(Br)c43)CC2)CC1 [Example 4]
